Data from article PMC5091859, “Protein Translation Enzyme lysyl-tRNA Synthetase Presents a New Target for Drug Development against Causative Agents of Loiasis and Schistosomiasis” (PLoS Neglected Tropical Diseases, 2016).

Chains of the proteins cited; added tags and fusions are not shown. Residues count along the entry.
UniProt A0A1I7VQ84, 78-599 V330Q/S346T: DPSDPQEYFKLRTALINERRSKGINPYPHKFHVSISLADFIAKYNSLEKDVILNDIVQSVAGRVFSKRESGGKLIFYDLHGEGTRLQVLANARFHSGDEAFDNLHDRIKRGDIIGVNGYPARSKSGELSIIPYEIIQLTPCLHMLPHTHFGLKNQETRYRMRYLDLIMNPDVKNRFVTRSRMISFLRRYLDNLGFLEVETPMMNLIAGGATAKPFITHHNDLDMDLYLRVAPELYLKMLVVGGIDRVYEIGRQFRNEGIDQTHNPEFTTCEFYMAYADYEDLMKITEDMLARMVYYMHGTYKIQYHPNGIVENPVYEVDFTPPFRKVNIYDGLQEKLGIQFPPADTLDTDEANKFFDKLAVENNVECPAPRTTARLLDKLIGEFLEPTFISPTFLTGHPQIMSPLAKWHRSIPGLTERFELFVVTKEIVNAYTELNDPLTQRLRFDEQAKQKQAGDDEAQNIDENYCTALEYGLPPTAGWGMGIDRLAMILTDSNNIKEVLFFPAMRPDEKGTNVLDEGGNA

Assays:
[1] = biological target: T1, Human-like LlKRS V329Q/S346T mutant (Loa loa, UniProt A0A1I7VQ84); type: binding; conditions: 1 mM L-lysine
[2] = biological target: T1, Human-like LlKRS V329Q/S346T mutant; assay: biochemical

C[C@H]1CCC[C@H](C[C@H]2Cc3cc(O)cc(O)c3C(=O)O2)O1 [cladosporin]
Thermal shift of human-like LlKRS ([1]; cladosporin 200 μM, KRS 2 μM (hundred fold)): 7.2 °C
Thermal shift of human-like LlKRS ([1]; ligand 20 μM, KRS 2 μM (ten fold)): 5.3 °C
IC50 [2]: 1.37 µM

Read-outs that look alike come from different tables or passages of the source.
